The text below walks through data of ChEMBL document CHEMBL1156129, “Synthesis, structure-activity relationships, and characterization of novel nonsteroidal and selective androgen receptor modulators” (J Med Chem, 2009).

Protein sequences, listed by entry. Tags and fused reporters are not part of them. Lines headed by an entry give the natural chain unless they say otherwise; changes in a name come on top.
UniProt P10275: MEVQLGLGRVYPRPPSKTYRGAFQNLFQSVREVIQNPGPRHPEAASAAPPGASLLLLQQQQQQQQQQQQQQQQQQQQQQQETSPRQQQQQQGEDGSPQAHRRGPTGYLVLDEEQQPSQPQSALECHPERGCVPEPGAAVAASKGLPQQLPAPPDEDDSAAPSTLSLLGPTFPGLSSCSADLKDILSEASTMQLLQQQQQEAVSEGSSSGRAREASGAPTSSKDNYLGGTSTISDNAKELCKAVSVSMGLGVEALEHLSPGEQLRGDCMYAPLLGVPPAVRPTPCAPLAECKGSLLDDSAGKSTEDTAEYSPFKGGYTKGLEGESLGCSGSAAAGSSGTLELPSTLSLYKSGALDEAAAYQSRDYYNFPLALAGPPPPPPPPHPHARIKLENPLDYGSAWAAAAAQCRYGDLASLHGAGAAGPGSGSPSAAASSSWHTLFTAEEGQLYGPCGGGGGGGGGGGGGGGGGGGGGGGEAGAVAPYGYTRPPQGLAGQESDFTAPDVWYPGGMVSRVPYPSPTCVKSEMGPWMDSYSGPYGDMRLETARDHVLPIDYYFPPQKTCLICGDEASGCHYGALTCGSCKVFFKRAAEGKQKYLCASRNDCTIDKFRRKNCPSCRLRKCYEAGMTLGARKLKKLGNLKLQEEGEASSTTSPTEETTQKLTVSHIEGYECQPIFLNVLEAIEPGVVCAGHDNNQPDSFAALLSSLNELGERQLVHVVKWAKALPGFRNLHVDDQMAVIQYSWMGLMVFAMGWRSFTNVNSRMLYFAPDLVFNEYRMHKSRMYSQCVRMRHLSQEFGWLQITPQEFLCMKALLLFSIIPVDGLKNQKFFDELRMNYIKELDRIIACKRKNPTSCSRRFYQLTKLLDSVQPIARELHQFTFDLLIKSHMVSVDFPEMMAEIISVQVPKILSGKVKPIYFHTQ

Broadly, the EC50 is the midpoint of the concentration-response curve. Low values mean an effect from little substance, high ones a need for much substance.

The experiment deals with Androgen receptor (Homo sapiens, UniProt P10275).

`N#Cc1ccc(N2[C@@H]3CC[C@H]2C[C@@H](O)C3)c2ccccc12` (stereo in doubt; 2) gave an EC50 of 1.58 nM.
